{"source": "PubChem BioAssay (Tox21)", "note": "This is a selection; strong and weak results do not stand in their true shares. Inconclusive results are not listed. Entries that show only a call come without a potency. Active and inactive are the calls of the source. Calls follow the shape of the dose curve; as a rule, active = well fitted cell-killing curve with a large enough effect in the repeat runs; inconclusive = weak or mixed curves, or effect the other way; inactive = flat fitted curve, though single readings scatter. Potency is read from the fitted curve at half-maximal effect.", "data": [{"assay": "Human pregnane X receptor (PXR) small molecule agonists, qHTS cell viability counter screen (AID 1346977); also: nearly all actives have a fitted effect of over 50% in size", "details": "PXR-Luc HepG2 viability, CellTiter-Fluor, 24 h; series mostly up to 92.4 µM", "from_the_text": "U.S. Tox21 Program National Center for Advancing Translational Sciences [NCATS] NIH Chemical Genomics Center [NCGC] U.S. Environmental Protection Agency [EPA] National Institutes of Environmental Health Sciences [NIEHS] National Toxicology Program [NTP] U.S. Food and Drug Administration [FDA] Tox21 Assay Overview: The human pregnane X receptor (hPXR) regulates the expression of several drug metabolizing enzymes and induction of these proteins is a major mechanism for developing drug resistance in cancer. One such key enzyme catalyzing the drug metabolism is cytochrome P450 3A4 (CYP3A4). Changes in CYP3A4 expression affect drug metabolism, thereby reducing the therapeutic efficacy and altering toxicological response to a drug and which finally causes adverse drug interaction. To screen Tox21 libraries for compounds that activate hPXR-mediated CYP3A4 gene expression, PXR-Luc HepG2 cells were used. Also cytotoxicity of the compounds was tested in parallel by measuring the cell viability using CellTiter-Fluor assay system in the same wells.\nTox21 Assay Protocol Summary: PXR-Luc HepG2 cells were dispensed at 2,000 per well in 5uL of assay medium containing 5% charcoal-stripped FBS into white solid bottom 1536-well plates (Corning Life Sciences, Corning, NY) using a Multidrop Combi (Thermo Scientific, Waltham, MA) dispenser. The assay plates were incubated at 37 C and 5% CO2 for 5hr, and then 23nL of compounds dissolved in DMSO and positive control were transferred using a Pintool station (Wako, San Diego, CA). The assay plates were incubated at 37C and 5% CO2 for 24hr. For cytotoxicity read, after 23hr incubation at 37C, 1uL CellTiter-Fluor reagent (Promega Corporation, Madison, WI) was added to each well of the assay plates using Flying Reagent Dispenser (FRD, Aurora Discovery, San Diego, CA). After 1hr incubation at 37C and 5% CO2, the fluorescence signal was quantified using a ViewLux plate reader (PerkinElmer, Shelton, CT).", "values": [{"smiles": "CCCCO[P+](=O)OCCCC", "Potency": "inactive"}, {"smiles": "CCCCC(CC)CO[P+](=O)OCC(CC)CCCC", "note": "(stereo unspecified)", "Potency": "inactive"}, {"smiles": "CCC(C)(OOC(C)(C)C)OOC(C)(C)C", "activity change, negative = cytotoxicity": "inactive: 1.63% [at 19 µM]"}, {"smiles": "CCCCOP(OCCCC)OCCCC", "Potency": "inactive"}, {"smiles": "COC(=O)Cl", "Potency": "inactive"}, {"smiles": "O=[As]c1ccccc1", "note": "(stereo unspecified)", "Potency": "active: 0.344 µM"}, {"smiles": "COP(=S)(Cl)OC", "Potency": "inactive"}, {"smiles": "O=C(Cl)OCCOC(=O)Cl", "Potency": "inactive"}, {"smiles": "O=C(Cl)Oc1ccccc1", "Potency": "inactive"}, {"smiles": "NC(=O)Nc1ccc([As](=O)(O)O)cc1", "Potency": "inactive"}, {"smiles": "ClP(Cl)c1ccccc1", "Potency": "inactive"}, {"smiles": "O=[p+]1oc2ccccc2c2ccccc21", "note": "(stereo unspecified)", "Potency": "inactive"}, {"smiles": "O=[N+]([O-])c1ccc(S(=O)(=O)O)c([N+](=O)[O-])c1", "Potency": "inactive"}, {"smiles": "CN(C(=O)Cc1cccc2occc12)[C@H]1CC[C@@]2(CCCO2)C[C@@H]1N1CCCC1", "Potency": "inactive"}, {"smiles": "O=P(Cl)(Cl)c1ccccc1", "Potency": "inactive"}, {"smiles": "O=[P+](Oc1ccccc1)Oc1ccccc1", "Potency": "inactive"}, {"smiles": "CCOC(=O)Cl", "Potency": "inactive"}, {"smiles": "CCOP(=S)(CC)Sc1ccccc1", "note": "(stereo unspecified)", "Potency": "inactive"}, {"smiles": "O=[N+]([O-])c1ccc([N+](=O)[O-])cc1", "Potency": "active: 48.6 µM"}, {"smiles": "CCNC(C)Cc1ccc2c(c1)OCO2", "note": "(stereo unspecified)", "Potency": "inactive"}, {"smiles": "CC(C)CCCCCCCOP(OCCCCCCCC(C)C)Oc1ccccc1", "Potency": "inactive"}]}]}
